Target: PLS3(F258V) mutant (human) (UniProt Q9NRY6)
Experiment: cell-based or functional assay

Protein sequences, listed by entry. Tags and fused reporters are not part of them.
UniProt Q9NRY6, whole entry F258V: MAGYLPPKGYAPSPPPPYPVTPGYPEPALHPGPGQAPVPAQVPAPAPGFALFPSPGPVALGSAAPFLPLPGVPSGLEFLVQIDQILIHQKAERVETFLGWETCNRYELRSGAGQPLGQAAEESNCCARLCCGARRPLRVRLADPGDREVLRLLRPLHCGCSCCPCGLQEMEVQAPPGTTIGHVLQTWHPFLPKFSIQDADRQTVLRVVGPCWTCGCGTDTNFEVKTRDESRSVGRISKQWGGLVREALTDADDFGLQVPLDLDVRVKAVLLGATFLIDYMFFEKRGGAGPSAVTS

Q: How did the cell death in GFP positive cells turn out when “Bcl-B (untagged, from pcDNA-Bcl-B or pBcl-B-IRES-EGFP) (from UniProt Q9HD36 1-204)” was run?
A: Its cell death in GFP positive cells is 7.5%.

Source: patent publication US20060172958A1, “Phospholipid scramblase 3” (priority 2003, published 2006)
